## scFv variants of Ab-91 (heavy chain) against a SARS-CoV-2 spike peptide

Source: Engelhart et al. 2022 (doi:10.1038/s41597-022-01779-4), MIT Lincoln Laboratory and A-Alpha Bio; data file from the FLAb repository.

Target peptide (SARS-CoV-2 spike, HR2 region): PDVDLGDISGINAS

Each scFv is VL, a (GGGGS)3 linker, VH, as in the parent Ab-91, and differs from it in the CDRs of the heavy chain only.
VL: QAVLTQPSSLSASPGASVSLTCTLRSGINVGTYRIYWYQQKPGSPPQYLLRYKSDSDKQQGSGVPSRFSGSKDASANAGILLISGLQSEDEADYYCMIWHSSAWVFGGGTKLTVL
VH: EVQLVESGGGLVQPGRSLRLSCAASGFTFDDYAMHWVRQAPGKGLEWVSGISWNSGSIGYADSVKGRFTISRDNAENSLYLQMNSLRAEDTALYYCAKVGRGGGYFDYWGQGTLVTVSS

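The parent was found by panning a naive human phage display library on the peptide. Variants in AAYL51 differ from the parent at up to three CDR positions; double and triple changes were sampled at random. In AlphaSeq, yeast of one mating type display the scFv and yeast of the other type display the target. Pairs that bind mate more often; barcode pairs of the diploids are counted by sequencing. Each replicate has its own calibration line, from reference interactions of the BCL2 family. The assay was run in three technical replicates.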

Positions count from residue 1 of the parent VH; F29N puts N in place of F.
All variants listed here change K65 of the VH, counted from its first residue.
Values are apparent Kd, the geometric mean of the replicates that gave a signal; lower means stronger binding.
Where no diploid with the target was found in any replicate, the entry reads "nd": below detection, most likely a poor binder, though not proof of it.
Background: pairings of library AAYL51 with three empty control strains gave a value in 21% of cases (median 34 µM, 5th percentile 1.8 µM). Values in that range, when seen in few replicates, are hard to tell from nonspecific mating.

* F29N K65I D107T: 64 µM (3 of 3 replicates)
* F27L A33H K65L: nd (0 of 3 replicates)
* S55P S63V K65H: 29 µM (3 of 3 replicates)
* H35R S52K K65S: 38 µM (1 of 3 replicates)
* G26Y H35F K65I: 180 µM (2 of 3 replicates)
* Y32G G59W K65N: nd (0 of 3 replicates)
* K65Q Y105I: 3.5 µM (3 of 3 replicates)
* K65Q G100R: 48 µM (2 of 3 replicates)
* K65A G102K F106S: nd (0 of 3 replicates)
* N54A S63R K65M: 76 µM (1 of 3 replicates)
* F27S K65F D107T: 24 µM (1 of 3 replicates)
* K65Y V99M: nd (0 of 3 replicates)
* A61H S63W K65E: 600 nM (3 of 3 replicates)
* K65S G100K G103R: 150 nM (3 of 3 replicates)
* A33Q A61M K65F: 58 µM (1 of 3 replicates)
* K65P G100D: 24 µM (2 of 3 replicates)
* I51R G56C K65Q: nd (0 of 3 replicates)
* I58G D62F K65N: nd (0 of 3 replicates)
* G26L Y60C K65C: nd (0 of 3 replicates)
* W53G K65H V99C: 240 nM (3 of 3 replicates)
* K65W R101W Y108L: 470 nM (1 of 3 replicates)
* D30T M34Q K65L: 30 µM (3 of 3 replicates)
* G26R A33F K65P: 160 µM (2 of 3 replicates)
* K65T G103R: 1.1 µM (1 of 3 replicates)
* A61T K65A G102Y: 1.1 µM (1 of 3 replicates)
* H35E K65F G102R: 40 µM (1 of 3 replicates)
* I51C G56C K65H: nd (0 of 3 replicates)
* K65D: 18 nM (3 of 3 replicates)
* A33P K65V F106A: 11 µM (1 of 3 replicates)
* A33N K65P V99Q: nd (0 of 3 replicates)
* G50T K65W: nd (0 of 3 replicates)
* G26P K65P: 35 µM (2 of 3 replicates)
* F27C K65F: nd (0 of 3 replicates)
* D30E A61K K65S: nd (0 of 3 replicates)
* F27W V64Y K65C: 6.2 µM (3 of 3 replicates)
* A33N K65G R101N: 73 µM (2 of 3 replicates)
* F27V Y60I K65D: 41 µM (3 of 3 replicates)
* A33I K65S G100M: nd (0 of 3 replicates)
* S52L G56Q K65G: 63 µM (1 of 3 replicates)
* I51V G59D K65A: nd (0 of 3 replicates)
* S52E K65Q: nd (0 of 3 replicates)
* N54K K65V: 26 µM (2 of 3 replicates)
* K65W: 700 nM (3 of 3 replicates)
* F29P V64N K65T: 8.4 µM (1 of 3 replicates)

For reference, 7 entries of the list once more:

{"changes": "A61T K65A G102Y", "Kd": "1.1 µM", "replicates with signal": "1/3"}
{"changes": "I51C G56C K65H", "Kd": "nd", "replicates with signal": "0/3"}
{"changes": "K65P G100D", "Kd": "24 µM", "replicates with signal": "2/3"}
{"changes": "F27L A33H K65L", "Kd": "nd", "replicates with signal": "0/3"}
{"changes": "K65W R101W Y108L", "Kd": "470 nM", "replicates with signal": "1/3"}
{"changes": "G26R A33F K65P", "Kd": "160 µM", "replicates with signal": "2/3"}
{"changes": "H35E K65F G102R", "Kd": "40 µM", "replicates with signal": "1/3"}